Test results as given in US5434247A, “Peptides for inducing monocyte cytotoxicity in diagnostics” (Board of Regents, The University of Texas System, priority 1992, dated 1995).

System: human monocytes / K562
Experiment: Human monocyte cytotoxicity assay (MCF assay), 111In-Ox labeled K562 targets
Assay type: cell-based
Protocol: FIG. 1. Hybrid cells were adjusted to 1×10^6 /ml and stimulated with 8 ug/ml PHA(+). […] to control (-) cultures, and both supernatants harvested by centrifugation. Monocyte cytotoxicity was measured as described herein with the exception that the monocyte monolayer was incubated overnight to allow for decay of NK cell activity. The monolayer was incubated for a second 24 hr period with dilutions of MCF containing supernatants. Dilutions represented are 1/4 in a total test volume of 0.2 ml. […] Microtiter plates were centrifuged 16 hrs later, and supernatants collected and counted. % specific release was calculated as described herein.
Only healthy volunteer donors were used. All volunteer donors signed an informed consent, and the protocol was approved by the Committee for the Protection of Human Subjects, University of Texas Health Science Center. Mononuclear cells were prepared by centrifugation over Ficoll/Hypaque. […] The monolayer was incubated overnight to allow for decay of residual natural killer activity before addition of lymphokine preparations on day 2.
The effector to target ratio was 30:1. […] After 18 hrs incubation of monocyte monolayer with target, the plates were centrifuged and supernatant was removed and cpms were counted in a Beckman Biogamma 2000. Specific release was calculated as described by Wiltrout, supra. […] Other tumor targets used were HL-60, L5178Y and TU5 (Table V).

Which results are given for rIL2: rIL 2 (Genzyme Corp.)?
monocyte cytotoxicity inducing activity (in words) (K562 target): Neither IL 1 or IL 2 had any activity; % specific lysis (cytokine added at 1 U/ml): -10.2 ± 17.7%; % specific lysis (cytokine added at 10 U/ml): -4.6 ± 4.3%; % specific lysis (cytokine added at 100 U/ml): -3.2 ± 3.5%; % specific lysis (cytokine added at 1000 U/ml): 2.7 ± 6.2%
